Source: US6809079B2, “Compositions and methods for treating female sexual arousal disorder using hydrophobic-calcitonin gene related peptide” (VasoGenix Pharmaceuticals, Inc., priority 2002, dated 2004)

Tested on: healthy male volunteers
Test: Topical application of hydrophobic-CGRP cream to induce erections, single blind, placebo controlled study
Format: in vivo, humans
Method: The study designed was a single blind, placebo controlled, single-dose, single and multiple application study to evaluate the safety and efficacy of CGRP-linolenic acid conjugate (hydrophobic-CGRP) applied topically to induce erections in six healthy male volunteers. Formulation A consisted of hydrophobic-CGRP mixed with Aquaphore cream (petroleum jelly/water emulsion) to a concentration of 10.18 μg/mL, formulation B, the placebo, was the Aquaphore vehicle. Six subjects received both formulation A and formulation B, and were instructed to apply each formulation on successive days (i.e. formulation A on one day, and formulation B the next day), and to do this on 3 separate occasions (n=18 applications). For each application, the subjects applied 0.5-1.0 mL of the cream to the ventral surface of the penis, and gently worked the cream into the skin without any additional manipulation or the assistance of visual aids. The subjects were instructed to determine if an erection suitable for intercourse was induced, time to onset of erection, and duration of erection for each application and write down the outcome. Two subjects who obtained consistent erections with formulation A in the first study, were asked to reapply the cream, and then after the erection subsided to immediately apply the cream 2 more times immediately following an erection (n=6 applications). […] Average time of onset of was 10 minutes for both formulations, with the erections lasting 15-40 minutes (averaging 20 minutes) for hydrophobic-CGRP versus a few minutes for placebo.
The results observed were due to the pharmacological effects of CGRP. […] Currently there are no products on the market or in development that permit unrestricted re-application due to formulation irritation, systemic side effects, and tachyphylaxis. An optimized formulation containing specific dermal penetration enhancers has the potential to increase efficacy, decrease the time of onset, and extend the duration of an erection, as well as permit re-application.

[1] = multiple applications, two subjects
[2] = single application subjects, topical cream
[3] = topical application, healthy male volunteers

“hydrophobic-CGRP: calcitonin gene-related peptide conjugated to linolenic acid as an ester; tested as formulation A in Aquaphore cream at 10.18 μg/mL” was tested, and the “repeat erections suitable for intercourse (share of applications)” value (multiple applications, 5 of 6 applications, two subjects, reapplied immediately after erection subsided) was 83%, the duration of erection [1] was “greater than 10 minutes” and the “tachyphylaxis in response to multiple applications” value [1] was “no tachyphylaxis”. For the same substance, the “time of onset of erection” value [1] was 10 min, the “average time of onset of erection” value [2] was 10 min and the “duration of erection (average)” value [2] was 20 min. For the same substance, the “duration of erection (range)” value [2] was 15 to 40 min, the “erections achieved (share of applications)” value (single application, 15 of 18 applications, six subjects, 0.5-1.0 mL cream of 10.18 μg/mL, topical to ventral surface of penis) was 83% and the adverse effects observed (topical application, all subjects) was “mild, localized, transient flushing of the penile skin”. The “local sensations reported (pain, burning, tingling, warmth)” value [3] was “no pain, burning, tingling or warm sensations were reported” and the systemic adverse effects [3] was “systemic adverse effects were observed”.
